Measured values taken from PubChem BioAssay (Tox21).
The entries are a selection whose mix differs from that of the whole data set. Results filed as inconclusive are left out. Activity calls are given as the source filed them. Unless noted, the call rests on the fitted dose curve; in most records, active means well fitted curve in the direction sought with a large enough effect in the repeat runs; inconclusive means weak or mixed curves; inactive means no such curve, though single readings can be large; an effect the other way counts as inactive or inconclusive.

By UniProt entry, the sequences of proteins in these tests, tags left out.
UniProt P04150, whole entry: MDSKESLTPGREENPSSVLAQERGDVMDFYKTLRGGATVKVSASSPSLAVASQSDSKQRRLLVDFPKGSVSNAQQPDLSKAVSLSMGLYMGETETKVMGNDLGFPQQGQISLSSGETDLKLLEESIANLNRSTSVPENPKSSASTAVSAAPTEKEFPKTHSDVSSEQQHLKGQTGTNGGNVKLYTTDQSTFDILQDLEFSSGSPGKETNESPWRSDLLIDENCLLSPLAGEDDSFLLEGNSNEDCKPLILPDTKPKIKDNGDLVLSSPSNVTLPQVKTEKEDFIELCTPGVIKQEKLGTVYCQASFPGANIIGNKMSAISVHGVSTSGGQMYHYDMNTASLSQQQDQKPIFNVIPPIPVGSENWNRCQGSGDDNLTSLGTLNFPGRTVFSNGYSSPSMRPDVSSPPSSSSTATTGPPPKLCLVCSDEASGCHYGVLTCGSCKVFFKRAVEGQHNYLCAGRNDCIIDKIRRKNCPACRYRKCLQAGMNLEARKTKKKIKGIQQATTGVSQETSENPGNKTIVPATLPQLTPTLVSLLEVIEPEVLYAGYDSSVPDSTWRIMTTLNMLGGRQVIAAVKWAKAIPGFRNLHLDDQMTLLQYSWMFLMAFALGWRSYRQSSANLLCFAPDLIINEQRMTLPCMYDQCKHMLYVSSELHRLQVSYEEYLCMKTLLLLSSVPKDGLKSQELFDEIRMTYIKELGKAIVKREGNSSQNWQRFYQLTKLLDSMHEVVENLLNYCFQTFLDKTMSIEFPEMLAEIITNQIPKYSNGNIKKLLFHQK

Key:
[1] = qHTS assay to test for compound auto fluorescence at 535 nm (green) in HEK293 cells (AID 720680); conditions: green autofluorescence 485/535 nm
[2] = qHTS assay to test for compound auto fluorescence at 460 nm (blue) in HEK293 cell free culture (AID 720681); conditions: cell-free medium, autofluorescence 405/460 nm (blue)
Summary of the method: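 Compounds were added to cell-free DMEM with 10% FBS and fluorescence read directly. The blue channel used 405 nm excitation and 460 nm emission, with triamterene as the reference fluorophore.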

[3] = qHTS assay to test for compound auto fluorescence at 535 nm (green) in HEK293 cell free culture (AID 720682); conditions: cell-free medium, green autofluorescence 485/535 nm, stronger effect = higher value
Summary of the method: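 Green-channel intensity (Ex/Em 485/535 nm) was recorded from compound-treated wells containing only DMEM with 10% FBS. Fluorescein provided the equivalency standard.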

[4] = qHTS assay to test for compound auto fluorescence at 590 nm (red) in HEK293 cell free culture (AID 720683); conditions: cell-free medium autofluorescence, Ex540/Em590 red
Summary of the method: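 Cell-free wells of DMEM with 10% FBS received compound, and intrinsic fluorescence was read at excitation/emission 540/590 nm. Values expressed as equivalence to Rose Bengal sodium.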

[5] = qHTS assay to test for compound auto fluorescence at 590 nm (red) in HepG2 cell free culture (AID 720684); conditions: cell-free medium autofluorescence, red 540/590 nm
Summary of the method: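 Rose Bengal sodium served as the reference for red signal. Test compounds were dispensed into serum-containing MEM (10% FBS) without cells, and plates were read at 540/590 nm.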

[6] = qHTS assay to test for compound auto fluorescence at 460 nm (blue) in HepG2 cell free culture (AID 720685); conditions: Cell-free culture medium, blue autofluorescence 405/460 nm
Summary of the method: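 Cell-free plates of MEM plus 10% FBS received 23 nL compound or DMSO vehicle; blue-channel (405/460 nm) intensity scored against triamterene as reference fluorophore.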

[7] = qHTS assay to test for compound auto fluorescence at 535 nm (green) in HepG2 cell free culture (AID 720686); conditions: Cell-free medium, green autofluorescence 485/535 nm
[8] = qHTS assay to test for compound auto fluorescence at 460 nm (blue) in HepG2 cells (AID 720687); conditions: autofluorescence 405/460 nm, 1 h
Summary of the method: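 HepG2 cells in MEM with 10% FBS, attached overnight at 37 C, were exposed to compound or DMSO for 1 hr at 37 C, 5% CO2. Blue fluorescence was read at 405/460 nm, with triamterene as reference fluorophore.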

[9] = biological target: Glucocorticoid receptor (Homo sapiens) (UniProt P04150); assay: qHTS assay to identify small molecule agonists of the glucocorticoid receptor (GR) signaling pathway (AID 720691; active means well fitted activation curve with a large enough effect in the signal ratio in the repeat runs, not every such curve was filed as active; the % refers to the signal ratio); conditions: GR-bla HeLa, beta-lactamase reporter ratio, 18 h; at 62.4 µM (top of the series)
[10] = qHTS assay to identify small molecule antagonists of the glucocorticoid receptor (GR) signaling pathway - cell viability counter screen (AID 720693); conditions: GR-bla HeLa viability, CellTiter-Glo luminescence, 18 h, with 5 nM dexamethasone present; at 58.5 µM (top of the series); further: nearly all actives have a fitted effect of over 55% in size
[11] = qHTS assay for identifying genotoxic compounds that show differential cytotoxicity against isogenic chicken DT40 cell lines with known DNA damage response pathways - wild type cell line (AID 743012); conditions: DT40 wild type chicken cells viability, CellTiter-Glo, 40 h; series mostly up to 68.4 µM; further: nearly all actives have a fitted effect of over 60% in size; further: potency means the concentration at half of the fitted maximal effect
Summary of the method: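 300 wt DT40 cells/well; cpd (DMSO) pintool-transferred after ~0.5 h at 37 C/5% CO2; 40 h incubation; CellTiter-Glo added, 30 min RT; luminescence read.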

[12] = qHTS assay for identifying genotoxic compounds that show differential cytotoxicity against isogenic chicken DT40 cell lines with known DNA damage response pathways - Rad54/Ku70 mutant cell line (AID 743015); conditions: DT40 Rad54/Ku70 mutant viability, CellTiter-Glo, 40 h; series mostly up to 66.8 µM; further: nearly all actives have a fitted effect of over 60% in size; further: potency means the concentration at half of the fitted maximal effect
Excerpt: (§1) National Center for Advancing Translational Sciences [NCATS]
(§2) NIH Chemical Genomics Center [NCGC]
(§3) U.S. Environmental Protection Agency [EPA]
(§4) National Institutes of Environmental Health Sciences [NIEHS]
(§5) National Toxicology Program [NTP]
(§6) U.S. Food and Drug Administration [FDA]
(§7) DNA repair pathways play a critical role in cellular homeostasis by repairing DNA damage induced by endogenous processes and xenobiotics. Isogenic chicken DT40 cell lines deficient in different DNA repair pathways can be used to identify genotoxic compounds and aid in characterizing the nature of the DNA damage induced. Two DNA repair-deficient cell lines with disrupted genes, Rad54/Ku70 or Rev3, were used to screen the Tox21 10K compound library. Possible genotoxicity was based on the presence of a significant increase in cytotoxicity in one or more of the DNA repair-deficient cell lines compared to that observed in the parental DNA repair-proficient cell line. CellTiter Glo viability assay (Promega, Madison, WI) was used to measure cell viability in these cells after compound treatment. This assay includes the data from the Rad54/Ku70 mutant cell line.
(§8) Tox21 Assay Protocol Summary:
(§9) 300 DT40 mutant cells in 5 uL/well were dispensed into white, solid-bottom 1536-well plates using a Multidrop Combi (ThermoFisher Scientific, Waltham, MA) dispenser. After the assay plates were incubated at 37 C/5% CO2 for approximately 0.5 hour, 23 nL of compounds dissolved in DMSO, positive controls or DMSO only was transferred into the assay plate by a pintool work station (Kalypsys, San Diego, CA). The assay plates were incubated at 37 C/5% CO2 for 40 hours. After 5 uL per well of CellTiter-Glo reagent was added into each well of the assay plates, the plates were incubated for 30 min at room temperature and the luminescence intensity of the plates was measured using a ViewLux (PerkinElmer, Shelton, CT) plate reader.

[13] = qHTS assay to identify small molecule antagonists of the androgen receptor (AR) signaling pathway - cell viability counter screen (AID 743033; further: nearly all actives have a fitted effect of over 45% in size); conditions: AR-bla HEK293 viability, CellTiter-Glo luminescence, 16 h; at 58.5 µM (top of the series)
Excerpt: as §1, §2, §3, §4, §5, §6
Androgen receptor (AR), a nuclear hormone receptor, plays a critical role in AR-dependent prostate cancer and other androgen related diseases. Endocrine disrupting chemicals (EDCs) and their interactions with steroid hormone receptors like AR may cause disruption of normal endocrine function as well as interfere with metabolic homeostasis, reproduction, developmental and behavioral functions. To identify the compounds that inhibit AR signaling, GeneBLAzer AR-UAS-bla-GripTite cell line (Invitrogen, Carlsbad, CA, USA) containing a beta-lactamase reporter gene under control of an Upstream Activator Sequence (UAS) stably integrated into HEK293 cells was used to screen the Tox21 10K compound library. The cytotoxicity of the Tox21 compound library against the AR-bla cell line was tested in parallel by measuring the cell viability using CellTiter-Glo assay in the same wells.
as §8
AR-bla cells were dispensed at 2,000 cells/5 uL of assay medium per well into black wall/clear-bottom 1536-well plates using a Multidrop Combi (ThermoFisher Scientific, Waltham, MA) dispenser. […] After 1 uL of LiveBLAzerTM B/G FRET substrate was added using a Bioraptr FRD, the plates were incubated at room temperature for 2 h and fluorescence intensity was measured by an Envision plate reader (PerkinElmer, Shelton, CT). For cell viability readout that measures cytotoxicity, 4 ul/well of CellTiter-Glo reagent was added into the assay plates using a Bioraptr FRD. After 30 min incubation at room temperature, the luminescence intensity in the plates was measured using a ViewLux (PerkinElmer) plate reader.

[14] = qHTS assay to identify small molecule antagonists of the androgen receptor (AR) signaling pathway using the MDA cell line - cell viability counter screen (AID 743041; further: nearly all actives have a fitted effect of over 45% in size); conditions: MDA-kb2 viability, CellTiter-Fluor, 16 h, cells co-treated with R1881 androgen agonist; at 70.3 µM (top of the series)
Summary of the method: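 Cytotoxicity counter screen: MDA-kb2 AR-luc cells, compound + R1881, 16 h, 37C, 0% CO2; CellTiter-Fluor added at 15.5 h, fluorescence read after 30 min.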

[15] = qHTS assay for identifying genotoxic compounds that show differential cytotoxicity against isogenic chicken DT40 cell lines with known DNA damage response pathways - Rev3 mutant cell line (AID 743014); conditions: chicken DT40 Rev3-/- viability, CellTiter-Glo, 40 h; series mostly up to 68.4 µM; further: nearly all actives have a fitted effect of over 55% in size
Excerpt: as §1, §2, §3, §4, §5, §6
as §7, with “the Rev3” for “the Rad54/Ku70”
as §8, §9

[16] = qHTS assay to identify small molecule antagonists of the thyroid receptor (TR) signaling pathway (AID 743065); conditions: GH3.TRE-Luc, T3-stimulated luciferase inhibition, 23.5 h; at 70.3 µM (top of the series); further: nearly all actives have a fitted effect of over 55% in size
Summary of the method: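 GH3.TRE-Luc rat pituitary cells (two TREs driving luciferase) were dosed with compound, then stimulated with 1 nM T3 (final) for 23.5 h at 37 C. ONE-Glo luminescence was the read-out, with CellTiter-Fluor fluorescence as the cytotoxicity counter-screen.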

[17] = biological target: Glucocorticoid receptor (Homo sapiens) (UniProt P04150); assay: qHTS assay to identify small molecule antagonists of the glucocorticoid receptor (GR) signaling pathway (AID 720692; active means well fitted inhibition curve with a large enough effect in the signal ratio in the repeat runs, not every such curve was filed as active; the % refers to the signal ratio); conditions: GR-bla HeLa, beta-lactamase FRET ratio, dexamethasone-stimulated, 18 h; at 58.5 µM (top of the series)
[18] = qHTS assay to identify small molecule antagonists of the thyroid receptor (TR) signaling pathway - cell viability counter screen (AID 743064); conditions: GH3.TRE-Luc viability, CellTiter-Fluor, 24 h; at 70.3 µM (top of the series); further: nearly all actives have a fitted effect of over 50% in size
Summary of the method: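 In rat pituitary GH3.TRE-Luc reporter cells co-exposed to compound and 1 nM T3 for 23.5 h, cytotoxicity was assessed with CellTiter-Fluor in the same wells, read by fluorescence.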
On the % scale 0 is the no-effect control and ±100 the full control effect.

CCC(=O)N(c1ccccc1)C1CCN(CCc2ccccc2)CC1
inactive: fluorescence, % of fluorescein ([1]; at 46 µM (top of the series)) 0.0036% | fluorescence, % of fluorescent control ([2]; at 46 µM (top of the series)) -0.168% | activity change ([3]; at 46 µM (top of the series)) -0.0248% | fluorescence, % of fluorescent control ([4]; at 46 µM (top of the series)) -0.594% | fluorescence, % of Rose Bengal ([5]; at 46 µM (top of the series)) -0.11% | fluorescence, % of fluorescent control ([6]; at 46 µM (top of the series)) -0.0121% | fluorescence, % of fluorescein control ([7]; at 46 µM (top of the series)) 0.008% | fluorescence, % of fluorescent control ([8]; at 46 µM (top of the series)) -0.144% | activation [9] 0.167% | viability change, negative = cytotoxic [10] -0.882% | activity change, negative = cytotoxicity [13] 1.46% | viability change, negative = cytotoxic [14] 0.62%
active: Potency [11] 13.3 µM | Potency [12] 26.6 µM

CCC(=O)N(c1ccccc1)C1(COC)CCN(CCn2nnn(CC)c2=O)CC1
inactive: fluorescence, % of fluorescein ([1]; at 91.3 µM (top of the series)) 0.0123% | fluorescence, % of fluorescent control ([2]; at 91.3 µM (top of the series)) -0.159% | activity change ([3]; at 91.3 µM (top of the series)) 0.0459% | fluorescence, % of fluorescent control ([4]; at 91.3 µM (top of the series)) -0.471% | fluorescence, % of Rose Bengal ([5]; at 91.3 µM (top of the series)) -0.0772% | fluorescence, % of fluorescent control ([6]; at 91.3 µM (top of the series)) 0.0163% | fluorescence, % of fluorescein control ([7]; at 91.3 µM (top of the series)) 0.0168% | fluorescence, % of fluorescent control ([8]; at 91.3 µM (top of the series)) -0.195% | viability change, negative = cytotoxic [10] -8.95% | Potency [15] | Potency [12] | activity change, negative = cytotoxicity [13] 0.951% | viability change, negative = cytotoxic [14] 0.0469% | activity, negative = inhibition [16] -7.37%

O=[N+]([O-])C(Cl)(Cl)Cl
inactive: fluorescence, % of fluorescein ([1]; at 91.3 µM (top of the series)) -0.0986% | fluorescence, % of fluorescent control ([2]; at 91.3 µM (top of the series)) -0.132% | activity change ([3]; at 91.3 µM (top of the series)) 0.0968% | fluorescence, % of fluorescent control ([4]; at 91.3 µM (top of the series)) 0.349% | fluorescence, % of Rose Bengal ([5]; at 91.3 µM (top of the series)) 0.0939% | fluorescence, % of fluorescent control ([6]; at 91.3 µM (top of the series)) 0.17% | fluorescence, % of fluorescein control ([7]; at 91.3 µM (top of the series)) 0.0007% | fluorescence, % of fluorescent control ([8]; at 91.3 µM (top of the series)) -0.0043% | activation [9] 1.27% | activity change, negative = inhibition [17] 3.92% | viability change, negative = cytotoxic [10] 4.64% | Potency [11] | Potency [15] | Potency [12] | activity change, negative = cytotoxicity [13] 5.84% | viability change, negative = cytotoxic [14] -3.27% | activity change, negative = cytotoxic [18] 9.82% | activity, negative = inhibition [16] 3.25%
